## Curated experimental data: water solubility values

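The numbers are reported measurements, compiled and curated for the OPERA QSAR suite. The files give a single number for a compound and property, which may rest on several reports. How each value was measured is not recorded, so precision varies. The measured form (salt, isomer or mixture) is not always the one drawn. Unmarked limits or estimates from the upstream databases cannot be ruled out.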

Solubility in water is on a log10 molar scale (set defined at 25 °C).
"–" marks a cell with nothing listed here.

structure (SMILES),name,log S (log10 mol/L)
COc1c(Cl)cc(Cl)c(Cl)c1Cl,–,-5.13
Cc1cc(S(=O)(=O)[O-])ccc1N.[Na+],"Benzenesulfonic acid, 4-amino-3-methyl-, monosodium salt",-1.729
O=C(N/N=C/C=C/c1ccc([N+](=O)[O-])o1)c1ccncc1,"Isonicotinic acid, [3-(5-nitro-2-furyl)allyliden]hydrazide",-3.98
CC(=O)C=C(C)NC1CCCCC1NC(C)=CC(C)=O (stereo not drawn),"4,4'-(cyclohexane-1,2-diyldiazanediyl)di(pent-3-en-2-one)",-1.699
Nc1ccc(Nc2ccc(N)cc2S(=O)(=O)O)cc1,–,-2.793
OCCC(F)(F)C(F)(F)C(F)(F)C(F)(F)C(F)(F)C(F)(F)C(F)(F)C(F)(F)F,8:2 Fluorotelomer alcohol,-6.388
CC(C)C(SC(C(=O)O)C(C)C)C(=O)O (stereo not drawn),"meso-2,2'-Thiobis(3-methyl-butyric acid)",-1.757
CCC1NC(=O)C(CC)NC1=O (stereo not drawn),"3,6-Diethylpiperazine-2,5-dione",-1.712
CC(NCCCCCCNC(C)C(C)(C)C)C(C)(C)C (stereo not drawn),"1,6-Hexanediamine, N1,N6-bis(1,2,2-trimethylpropyl)-",-3.518
C=CC(C)(C#N)Cc1ccccc1 (stereo not drawn),2-Benzyl-2-methyl-3-butenitrile,-3.001
CCCOCc1ccc(CC(C)C)cc1,4-(2-Methylpropyl)benzyl propyl ether,-4.783
Nc1cccc2ccc(S(=O)(=O)O)cc12,"2-Naphthalenesulfonic acid, 8-amino-",-1.68
CCC1(C)OC(=O)N(C)C1=O (stereo not drawn),Paramethadione,-0.066
CCN(CCNS(C)(=O)=O)c1ccc(N)c(C)c1,–,-1.832
COc1ccc(CCNCC(O)COc2cccc(C)c2)cc1OC (stereo not drawn),Bevantolol,-4.402
Clc1ccc(Oc2c(Cl)c(Cl)c(Cl)c(Cl)c2Cl)cc1,"2,3,4,4',5,6-Hexachlorodiphenyl ether",-8.94
C[C@]12CCC(=O)C=C1CC[C@H]1[C@@H]3CC[C@](O)(C(=O)CO)[C@@]3(C)C[C@H](O)[C@@]12F,Fludrocortisone,-3.431
O=C(OC[C@H]1O[C@@](COC(=O)c2ccccc2)(O[C@H]2O[C@H](COC(=O)c3ccccc3)[C@@H](OC(=O)c3ccccc3)[C@H](OC(=O)c3ccccc3)[C@H]2OC(=O)c2ccccc2)[C@@H](OC(=O)c2ccccc2)[C@@H]1OC(=O)c1ccccc1)c1ccccc1,Sucrose octabenzoate,-5.593
CNC(=O)c1ccc(-c2cnc3ncc(Cc4ccc5ncccc5c4)n3n2)cc1F,Capmatinib,-5.92
Oc1cccc2scnc12,4-Hydroxybenzothiazole,0.765
C=CC(=O)OCCCCCCOc1ccc(C(=O)Oc2ccc(OC(=O)c3ccc(OCCCCCCOC(=O)C=C)cc3)c(C)c2)cc1,–,-6.351
O=C1CCCCCCCCCCC(=O)OCCO1,"1,4-Dioxacyclohexadecane-5,16-dione",-3.534
Cc1cc(N(CCO)CCO)ccc1N=Nc1ccc([N+](=O)[O-])cc1[N+](=O)[O-],–,-6
COC1(OC)CCCCCCCCCCC1,"1,1-Dimethoxycyclododecane",-4.126
C=C(C)C(=O)O[C@H]1C[C@@H]2CC[C@@]1(C)C2(C)C,Isobornyl methacrylate,-4.611
O=C1N[C@H]2NC(=O)N[C@H]2N1,Glycoluril,-1.995
Cc1c(Cl)cccc1Nc1ccccc1C(=O)O,Tolfenamic acid,-5.53
Cc1[nH]n(-c2ccccc2)c(=O)c1N=Nc1ccc(-c2ccc(N=Nc3c(C)[nH]n(-c4ccccc4)c3=O)c(Cl)c2)cc1Cl,C.I. Pigment Orange 13,-8.142
Cc1cc(Nc2cc(S(=O)(=O)[O-])c(N)c3c2C(=O)c2ccccc2C3=O)cc(S(=O)(=O)NCCO)c1C.[Na+],–,-2.675
C#C[C@]1(OC(C)=O)CC[C@H]2[C@@H]3CCC4=C[C@@H](OC(C)=O)CC[C@@H]4[C@H]3CC[C@@]21C,Ethynodiol diacetate,-4.986
CC(C)(c1ccccc1)C(C)(C)c1ccccc1,"1,1'-(1,1,2,2-Tetramethylethylene)dibenzene",-6.474
C=C(C)COCC/C=C\CC,(3Z)-1-[(2-Methylprop-2-en-1-yl)oxy]hex-3-ene,-3.292
Cc1ccc(/C(=C\CN2CCCC2)c2ccccn2)cc1,Triprolidine,-3.715
CC(=O)c1c2ccccc2cc2ccccc12,9-Anthryl methyl ketone,-5.35
CC(C)(C)CCCCCC(=O)[O-].CC(C)(C)CCCCCC(=O)[O-].[Zn+2],"Neodecanoic acid, zinc salt, basic",-2.721
Cc1ccc(CC(=O)O)c(C)c1,"2,4-Dimethylphenylacetic acid",-2.389
COC(=O)C1C2C=CC(C2)C1C(=O)OC (stereo not drawn),"Dimethyl bicyclo[2.2.1]hept-5-ene-2,3-dicarboxylate",-1.2
CN(c1ccccc1)S(=O)(=O)c1cc(O)c2c(/N=N/c3ccc(NC(=O)CCl)cc3S(=O)(=O)[O-])c(N)ccc2c1.[Na+],–,-4.359
COC[C@H]1O[C@@H](OC2OC[C@@H]3O[C@]4(O[C@H]3[C@H]2OC(=O)C(C)C)O[C@H](C)[C@@](O)(C(C)=O)[C@@H]2OCO[C@H]24)[C@@H](OC)[C@@H](O)[C@@H]1O[C@@H]1O[C@H](C)[C@H](OC)[C@H](O[C@H]2C[C@@]3(C)OC4(C[C@@H](O)[C@H](O[C@H]5C[C@@H](O)[C@H](OC(=O)c6c(C)c(Cl)c(O)c(Cl)c6OC)[C@@H](C)O5)[C@@H](C)O4)O[C@@H]3[C@@H](C)O2)[C@H]1O (stereo partly drawn),Avilamycin,-3.15
CC(COc1ccccc1)N(CCCl)Cc1ccccc1 (stereo not drawn),Phenoxybenzamine,-4.47
CCCCCOC(=O)c1ccccc1O,Pentyl 2-hydroxybenzoate,-4.31
Cn1c(=O)[nH]c(=O)c2[nH]c(=O)n(C)c21,"7,9-Dihydro-3,9-dimethyl-1H-purine-2,6,8(3H)-trione",-2.568
CCCCCCC1CCCC1=O (stereo not drawn),2-Hexylcyclopentanone,-3.452
CCCCCCCCON1C(C)(C)CCC(OC(=O)CCCCCCCCC(=O)OC2CCC(C)(C)N(OCCCCCCCC)C2(C)C)C1(C)C (stereo not drawn),–,-5.089
CC(C)(C#N)c1cc(Cn2cncn2)cc(C(C)(C)C#N)c1,Anastrozole,-3.208
CC(C)=CCCC(C)CCOC=O (stereo not drawn),Citronellyl formate,-4.056

4 of these entries, quoted again:

{"smiles": "Cc1ccc(/C(=C\\CN2CCCC2)c2ccccn2)cc1", "name": "Triprolidine", "log S (log10 mol/L)": "-3.715"}
{"smiles": "CC(C)(c1ccccc1)C(C)(C)c1ccccc1", "name": "1,1'-(1,1,2,2-Tetramethylethylene)dibenzene", "log S (log10 mol/L)": "-6.474"}
{"smiles": "Cc1ccc(CC(=O)O)c(C)c1", "name": "2,4-Dimethylphenylacetic acid", "log S (log10 mol/L)": "-2.389"}
{"smiles": "CNC(=O)c1ccc(-c2cnc3ncc(Cc4ccc5ncccc5c4)n3n2)cc1F", "name": "Capmatinib", "log S (log10 mol/L)": "-5.92"}

Source: data files of OPERA 2.9 (Mansouri et al.), github.com/kmansouri/OPERA.